pEC50: −log10 of the molar value.

Amino acid sequences for entries named in this document (tags omitted). Residues count along the entry.
UniProt P43220, 24-463 limits assumed: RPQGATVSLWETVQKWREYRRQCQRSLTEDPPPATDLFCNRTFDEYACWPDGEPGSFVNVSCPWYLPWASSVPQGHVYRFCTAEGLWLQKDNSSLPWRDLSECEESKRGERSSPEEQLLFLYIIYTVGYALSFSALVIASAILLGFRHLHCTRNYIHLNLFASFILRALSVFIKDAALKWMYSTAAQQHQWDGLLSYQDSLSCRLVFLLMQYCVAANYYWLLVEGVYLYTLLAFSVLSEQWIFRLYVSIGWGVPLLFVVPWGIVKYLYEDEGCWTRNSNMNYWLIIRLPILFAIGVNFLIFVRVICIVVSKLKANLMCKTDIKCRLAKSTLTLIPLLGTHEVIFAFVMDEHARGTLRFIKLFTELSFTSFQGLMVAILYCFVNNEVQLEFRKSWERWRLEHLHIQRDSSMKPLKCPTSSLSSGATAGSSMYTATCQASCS

Broadly, the pEC50 is −log10 of the EC50, conventionally taken in molar units.

In this assay the target is hGLP-1 receptor (Homo sapiens, UniProt P43220). Briefly: Agonist activity against GLP-1 receptor (CRE-luciferase reporter, ONE-Glo Luciferase Assay System). To be noted: CHO-K1/CRE-luc/hGLP-1 receptor cells; 5 h incubation with compound; chemiluminescence readout. Background: Reporter assays use an easily measured gene product as a stand-in for the process of interest.
Turning to `Cc1cc(-n2nc3c(c2N2C[C@@H]4COc5cc6c(cnn6C6CC6)c(F)c5N4C2=O)[C@H](C)N(C(=O)c2cc4cc5c(cc4n2[C@@]2(c4noc(=O)[nH]4)C[C@@H]2C)OCC52CCOC(C)(C)C2)CC3)cc(C)c1F` (stereo partly drawn), the pEC50 is 10.70 and the Emax stood at 20.23 fold.

On to `Cc1cc(-n2nc3c(c2N2C[C@@H]4COc5cc6c(cnn6C6CC6)c(F)c5N4C2=O)[C@H](C)N(C(=O)c2cc4cc(C5CCOC(C)(C)C5)ccn4c2C2(c4noc(=O)[nH]4)CC2)CC3)cc(C)c1F` (stereo partly drawn), for which the pEC50 is 10.70 and the Emax is listed as 17.54 fold.

For the molecule `Cc1cc(-n2nc3c(c2N2C[C@@H]4COc5c(ccc6c5cnn6C5CC5)N4C2=O)[C@H](C)N(C(=O)c2cc4cc5c(cc4n2[C@@]2(c4noc(=O)[nH]4)C[C@@H]2C)OCC52CCOC(C)(C)C2)CC3)cc(C)c1F` (stereo partly drawn), the pEC50 was 10.70.

With `Cc1cc(-n2nc3c(c2-c2cncn(-c4ccc5c(cnn5C)c4)c2=O)[C@H](C)N(C(=O)c2cc4cc5c(cc4n2[C@@]2(c4noc(=O)[nH]4)C[C@@H]2C)OCC52CCOC(C)(C)C2)CC3)cc(C)c1F` (stereo partly drawn), the pEC50 was 10.40 and the Emax is listed as 21.19 fold.

As for `Cc1cc(-n2nc3c(c2N2CC4COc5cc6c(cnn6C)c(F)c5N4C2=O)[C@H](C)N(C(=O)c2cc4cc([C@H]5CCOC(C)(C)C5)ccc4n2[C@@]2(c4noc(=O)[nH]4)C[C@@H]2C)CC3)cc(C)c1F` (stereo partly drawn), the pEC50 was 10.70 and the Emax was determined as 19.03 fold.

On to `Cc1cc(-n2nc3c(c2-n2ccn(-c4ccc5c(cnn5C)c4F)c2=O)[C@H](C)N(C(=O)c2cc4cc5c(cc4n2[C@@]2(c4noc(=O)[nH]4)C[C@@H]2C)OCC52CCOC(C)(C)C2)CC3)cc(C)c1F` (stereo partly drawn), for which the pEC50 is 11.00 and the Emax is 22.02 fold.

With `Cc1cc(-c2nn3c(c2N2C[C@@H]4COc5cc6c(cnn6C6CC6)c(F)c5N4C2=O)C(C)N(C(=O)c2cc4cc([C@H]5CCOC(C)(C)C5)ccc4n2[C@@]2(c4noc(=O)[nH]4)C[C@@H]2C)CC3)cc(C)c1F` (stereo partly drawn), the negative-log EC50 (pEC50) is 10.52 and the Emax is on record as 20.70 fold.

Take `[2H]C([2H])([2H])n1ncc2c(F)c3c(cc21)OCC1CN(c2c4c(nn2-c2cc(C)c(F)c(C)c2)CCN(C(=O)c2cc5cc([C@H]6CCOC(C)(C)C6)ccc5n2[C@@]2(c5noc(=O)[nH]5)C[C@@H]2C)[C@H]4C)C(=O)N31` (stereo partly drawn): the negative logarithm of the EC50 (pEC50) was 10.70 and the Emax is reported as 21.12 fold.

The values above are taken from patent EP4813984A1 (Jiangsu Hengrui Pharmaceuticals Co., Ltd., priority 2023, dated 2025).
